Assays:
[1] = tested on: peritoneal pain caused by phenylbenzoquinone (PBQ); assay: Peripheral analgesic activity (phenylbenzoquinone peritoneal pain); format: in vivo, mice; settings: mouse, s.c.; 30 min
mice = assay: Toxicity test: 50% lethal dose (LD50) in mice; settings: i.p.

Structure (SMILES)	Peripheral analgesic activity ED50 [1] [mg/kg]	LD50 (mice) [mg/kg]
Cc1ccc(C(OCCN2CCN(CCn3cnc4c3c(=O)n(C)c(=O)n4C)CC2)c2ccccc2)cc1 (stereo not drawn)	1.56	178
Cn1c(=O)c2c(ncn2CCN2CCN(CCOC(c3ccccc3)c3ccccc3)CC2)n(C)c1=O		240
